## scFv variants of Ab-14 (light chain) against a SARS-CoV-2 spike peptide

Antigen: PDVDLGDISGINAS, a 14-residue peptide of the SARS-CoV-2 spike HR2 region.

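The starting antibody came from a phage panning campaign against this peptide. The library (AAYL50) carries one to three amino acid substitutions per variant, with no insertions or deletions. AlphaSeq pools MATa yeast showing the antibodies with MATalpha yeast showing the peptide. Mating (16 h, 30 °C) was followed by selection of diploids and sequencing of their barcodes. Scores were corrected for input abundance and mapped to Kd with protein pairs of known affinity run in the same pool. There are three technical replicates.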

Parent: Ab-14, a human scFv built as VH, three GGGGS repeats, VL. Only the CDRs of the light chain vary.
VH: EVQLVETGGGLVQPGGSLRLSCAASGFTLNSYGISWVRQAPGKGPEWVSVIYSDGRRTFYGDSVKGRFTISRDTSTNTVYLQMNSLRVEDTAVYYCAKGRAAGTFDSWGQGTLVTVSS
VL: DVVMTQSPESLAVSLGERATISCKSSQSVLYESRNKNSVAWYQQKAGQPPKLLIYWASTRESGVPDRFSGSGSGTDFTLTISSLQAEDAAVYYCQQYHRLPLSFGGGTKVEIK

Each variant is given by its three light chain CDRs, as the data file delimits them; those of the parent are KSSQSVLYESRNKNSVA, WASTRES, QQYHRLPLS.
Numbers give log10(Kd / nM), so 0 is 1 nM and 3 is 1 µM. Smaller is tighter.
A mean of the replicates is given; it leaves out those without a signal.
"n.d." marks a missing value. The strain was present, yet no cells mated with the target were sequenced in that replicate, which points to weak or no binding.
Three control strains display no target. For library AAYL50, 18% of the pairings with them gave a signal, with a median of 4.19 and one signal in twenty below 2.99, so weak values seen in few replicates may be background. The control count says in how many pairings with the empty strains this scFv gave a signal, with their mean in brackets.

CDR-L1	CDR-L2	CDR-L3	replicates, log10 nM	mean log10 Kd (nM)	empty controls
NSSQRVLYENRNKNSVA	WASTRES	QQYHRLPLS	3.46 2.74 3.02	3.08	4/9 (4.64)
KSSQSVLYESRNKGSVA	WASTREQ	QQYYRLPLS	0.69 1.08 0.98	0.92	3/9 (4.64)
KSSQSVLHESRVKNSVA	WASTRCS	QQYHRLPLS	1.99 2.29 2.66	2.31	0/9
KSGQSVLYESRNSNSVA	WASTRES	QGYHRLPLS	1.88 2.32 2.43	2.21	0/9
PSSQSVLTESRNKNSVA	WACTRES	QQYHRLPLS	n.d. 3.99 4.71	4.35	2/9 (4.86)
KSSQSVLYESRNKNLVA	WASTRES	QQYHMLPLS	1.92 2.13 3.94	2.66	2/9 (3.90)
KMSQSVLYESRNKQSVA	WASTRES	QQYHRSPLS	1.89 1.84 2.07	1.93	5/9 (4.93)
KSSQSVLYMSKNKNSVA	WASTRES	QQYHRLPLS	6.41 4.10 n.d.	5.25	3/9 (4.96)
KSSQSVLYESRNKNSYA	WASTRES	QQYHRYPLS	n.d. 4.89 n.d.	4.89	3/9 (3.99)
KSDQSVLYESRNKNSVA	WALTRES	QQYKRLPLS	n.d. n.d. n.d.	n.d.	3/9 (3.74)
WSSQSVLYGSRNKYSVA	WASTRES	QQYHRLPLS	n.d. n.d. n.d.	n.d.	0/9
KWDQSVLYESRNKNSVA	WASTRES	QQYHRLVLS	n.d. n.d. n.d.	n.d.	0/9
KSEQSVLYESRNCNSVA	WASTRES	QPYHRLPLS	2.59 1.89 1.84	2.11	1/9 (4.06)
KSSQSVLYESRNKNSVA	WASNWES	DQYHRLPLS	4.91 4.38 5.37	4.89	8/9 (4.67)
KSSQSVLYESRNKNSVA	WADTRES	QQYVRLPYS	n.d. n.d. 3.60	3.60	3/9 (3.69)
KSSQSVLYEIRNKNSIA	WASTRES	QQDHRLPLS	n.d. n.d. n.d.	n.d.	0/9
KSLQSVLFESRNKNSVA	WASTRES	QQYHRLPLS	1.37 1.67 1.51	1.52	1/9 (4.04)
KSSQSVDYESRNKNSVA	WAETRES	QQYHRLSLS	1.47 1.62 1.75	1.61	2/9 (4.20)
KSSQSVLLESRYKNSVA	WASTRED	QQYHRLPLS	0.63 0.78 0.80	0.74	2/9 (4.39)
KSSQSVLYRSRNKNSVA	WAWTRES	QQQHRLPLS	n.d. n.d. n.d.	n.d.	1/9 (4.42)
KSSQSVLNESRNKNSVA	SASTCES	QQYHRLPLS	1.50 1.40 1.52	1.47	0/9
KSSWSVLYEKRNKNSVA	WGSTRES	QQYHRLPLS	1.22 1.46 1.69	1.46	1/9 (3.30)
KSGQSVWYQSRNKNSVA	WASTRES	QQYHRLPLS	2.00 1.83 1.50	1.78	2/9 (3.49)
KSSQSVLYEANNKNSVA	WASTRES	QQYHRLPAS	n.d. 4.48 n.d.	4.48	2/9 (2.89)
KSSQSLLPESRNKNSVA	WASTRES	QQYHPLPLS	0.38 0.61 0.50	0.50	7/9 (4.36)
KSSQSVLYESRNKNSVA	LKSTRES	QQYHRTPLS	3.23 2.29 2.85	2.79	2/9 (3.43)
KSSQSVLYESRNKNSVA	WASTSEQ	QQYHRSPLS	n.d. n.d. n.d.	n.d.	2/9 (3.80)
KSSWSVLYESRNKNSAA	WESTRES	QQYHRLPLS	n.d. n.d. n.d.	n.d.	0/9
TSSQSVLYEACNKNSVA	WASTRES	QQYHRLPLS	2.32 1.85 1.94	2.03	0/9
KSSQSCLYESRKKNSVA	WASTREA	QQYHRLPLS	2.19 1.83 2.04	2.02	4/9 (4.69)
KSSQIKLYESRNKNSVA	WAQTRES	QQYHRLPLS	1.59 2.60 n.d.	2.10	0/9
KSSQFVLYESRNKNSVA	QASTRES	QQYHRHPLS	3.83 3.49 5.22	4.18	8/9 (4.44)
KSSQSVLCESRNKNSVA	WASTRES	QTYHWLPLS	1.42 1.26 2.24	1.64	0/9
KSSQSVLQESRNKNSRA	WASTRES	QQYKRLPLS	n.d. n.d. n.d.	n.d.	0/9
KSSQSVLYTSRNKNSVA	WASTRES	QNYHRLPLK	3.90 3.24 4.11	3.75	2/9 (4.52)
KSSQSVLYNSRNKNSVA	WASTRES	QQYHRLPLS	1.91 1.67 1.89	1.82	7/9 (4.34)
KSSQSVLYHSRNKNSVA	WASTRES	KQYFRLPLS	n.d. n.d. n.d.	n.d.	0/9
ISSQSVLYESRNKNSVA	WASTRES	QQYHRLNLS	n.d. n.d. 3.57	3.57	2/9 (3.67)
KSSQSVLYESTNKDSMA	WASTRES	QQYHRLPLS	n.d. n.d. n.d.	n.d.	2/9 (2.82)
DSSQSVLYESFNKNSVA	WASTRDS	QQYHRLPLS	3.65 n.d. n.d.	3.65	1/9 (4.08)
KSSQSVQYESRNKNSVA	WASTRKS	QQYHRVPLS	1.49 1.67 1.88	1.68	2/9 (3.65)
KSSVSMLYESRNKNSVE	WASTRES	QQYHRLPLS	n.d. n.d. n.d.	n.d.	0/9
KSGQSVLYESRVKNSVA	WASTAES	QQYHRLPLS	6.50 4.16 n.d.	5.33	4/9 (3.93)
KSSESVLYESRNKNSVT	WASTRES	QQYHRLILS	n.d. n.d. 4.26	4.26	3/9 (4.43)
KSSQNVLYESRNKNSVA	WFSTRES	QQYHLLPLS	n.d. n.d. n.d.	n.d.	4/9 (4.60)
KSSQSVLYESRNKNSAL	WASTPES	QQYHRLPLS	4.02 n.d. 4.52	4.27	8/9 (4.59)
KSSQSVLKEDRLKNSVA	WASTRES	QQYHRLPLS	0.58 0.77 0.66	0.67	2/9 (4.45)
KSPYSVLYESRGKNSVA	WASTRES	QQYHRLPLS	1.26 1.24 1.57	1.36	0/9
KSSQSVLYESRNKNSVA	WASTNKS	QQSHRLPLS	n.d. 3.95 n.d.	3.95	4/9 (4.58)
KSSQSVLYESRNKNSVA	WASTDQS	QQYHRLPLS	n.d. n.d. n.d.	n.d.	0/9
CSKQSVLYESRNKNSVA	WASTRES	QQYHRLPLS	2.63 2.24 2.98	2.62	2/9 (5.51)

The 6 strongest on average among those seen in every replicate, once more:

CDR-L1	CDR-L2	CDR-L3	replicates, log10 nM	mean log10 Kd (nM)	empty controls
KSSQSLLPESRNKNSVA	WASTRES	QQYHPLPLS	0.38 0.61 0.50	0.50	7/9 (4.36)
KSSQSVLKEDRLKNSVA	WASTRES	QQYHRLPLS	0.58 0.77 0.66	0.67	2/9 (4.45)
KSSQSVLLESRYKNSVA	WASTRED	QQYHRLPLS	0.63 0.78 0.80	0.74	2/9 (4.39)
KSSQSVLYESRNKGSVA	WASTREQ	QQYYRLPLS	0.69 1.08 0.98	0.92	3/9 (4.64)
KSPYSVLYESRGKNSVA	WASTRES	QQYHRLPLS	1.26 1.24 1.57	1.36	0/9
KSSWSVLYEKRNKNSVA	WGSTRES	QQYHRLPLS	1.22 1.46 1.69	1.46	1/9 (3.30)

Data: MIT Lincoln Laboratory AlphaSeq set, Engelhart et al. 2022, doi:10.1038/s41597-022-01779-4, as distributed in FLAb.